Reference: US20190077795A1, “ARGININE […] INHIBITORS AND USES THEREOF” (Epizyme, Inc., priority 2014, published 2019)

Test system: mono-methyl arginine in RKO cells
Test: RKO Methylation Assay, In Cell Western (ICW)
Format: cell-based
Settings: 72 hours
Description: RKO adherent cells were purchased from ATCC (American Type Culture Collection), Manassas, Va., USA. DMEM/Glutamax medium, penicillin-streptomycin, heat inactivated fetal bovine serum, 0.05% trypsin and D-PBS were purchased from Life Technologies, Grand Island, N.Y., USA. Odyssey blocking buffer, 800CW goat anti-rabbit IgG (H+L) antibody, and Licor Odyssey infrared scanner were purchased from Licor Biosciences, Lincoln, Nebr., USA. Mono-methyl arginine antibody was purchased from Cell Signaling Technology, Danvers, Mass., USA. Methanol was purchased from VWR, Franklin, Mass., USA. 10% Tween 20 was purchased from KPL, Inc., Gaithersburg, Md., USA. DRAQ5 was purchased from Biostatus Limited, Leicestershire, UK. […]
First, the ratio for each well was determined by:
Each plate included fourteen control wells of DMSO only treatment (minimum activation) as well as fourteen control wells for maximum activation treated with 20 μM of a reference compound. The average of the ratio values for each control type was calculated and used to determine the percent activation for each test well in the plate. […] Percent activation was determined and EC30 curves were generated using triplicate wells per concentration of compound.

For `CNCCN(C)Cc1c[nH]nc1-c1ccc(OC2CC(OCCC3CCOCC3)C2)cc1` (stereo not shown) [Compound 145], the “ICW EC30” value was 1.039 µM.
